Data taken from patent US20230340011A1 (Asteroid Therapeutics, priority 2022, published 2023).

Sequences of proteins named here, by UniProt entry; tags and fusion partners are left off.
UniProt P55055, whole entry: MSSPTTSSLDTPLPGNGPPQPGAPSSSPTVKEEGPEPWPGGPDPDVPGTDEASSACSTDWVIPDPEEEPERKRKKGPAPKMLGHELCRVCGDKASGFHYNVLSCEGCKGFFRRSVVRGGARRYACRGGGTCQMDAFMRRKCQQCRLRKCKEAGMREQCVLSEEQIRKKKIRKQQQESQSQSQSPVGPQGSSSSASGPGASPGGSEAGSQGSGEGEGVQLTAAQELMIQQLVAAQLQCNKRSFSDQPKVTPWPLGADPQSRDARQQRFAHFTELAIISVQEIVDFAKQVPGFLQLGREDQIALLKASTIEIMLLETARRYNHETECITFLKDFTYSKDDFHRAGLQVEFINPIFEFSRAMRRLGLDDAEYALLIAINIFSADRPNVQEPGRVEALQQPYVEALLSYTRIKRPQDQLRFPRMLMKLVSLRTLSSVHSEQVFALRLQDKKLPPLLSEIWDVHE

Molecular target: LXRβ (Homo sapiens (Human), UniProt P55055)
Assay: In vitro assay LXRβ: PathHunter NHR CHO cells, LXRβ / Steroid Receptor Co-activator Peptide enzyme fragment complementation
Type: cell-based
Conditions: read-out: LXRβ PPI, full-length human LXRβ and SRCP, chemiluminescent signal

Q: With C[C@H](CCc1ccncn1)[C@H]1CC[C@H]2[C@@H]3CC=C4C[C@@H](O)CC[C@]4(C)[C@H]3CC[C@]12C as the compound, how does the EC50 read?
A: 1 to 10 µM
